The list is not random: actives were taken first. Their share in the collection is about 2.2%.
SIRT5 block = blocks human SIRT5 desuccinylation of peptide. Q9NXA8. Purified SirT5, succinyl-peptide AMC, trypsin-coupled fluorescence. inhibition, % at 15 µM. 1.1% of 330,000 active. AID 652115; in the data active = inhibition above about 15%; inconclusive = no clear call, values can overlap the other calls
UUG fidelity = yeast start codon fidelity modulation | S. cerevisiae UUG-firefly luciferase reporter, luminescence/redox ratio | activity score, % at 18.7 µM | 0.13% of 350,000 active | AID 602363;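 active means replicate mean at a twofold rise or more, about +100% in these data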;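 further: firefly luciferase made from a UUG start codon reports start codon fidelity; reporter light over untreated wells divided by growth signal over untreated wells; some hits fall short of that in this replicate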
ERp5 inh = blocks human ERp5 reductase activity on insulin | 0.05% of 350,000 active | inhibition, % at 9.99 µM | ERp5 insulin aggregation, absorbance 650 nm, 90 min;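 active = mean replicate inhibition above about 25%, with every replicate also reaching it, limit read from the data, passing the limit was not always enough; inconclusive = only one of those two criteria met; inactive = neither criterion met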
FGF22 binding = FGF22 (human) thermal shift binding; Q9HCT0; recombinant FGF22 thermal shift, SYPRO orange fluorescence; percent of sucrose octasulfate shift, DMSO zero; 1.5% of 340,000 active; activity (Tm shift, normalised), % at 9.99 µM;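 active = mean Tm shift, scaled 0 neutral to 100 positive control, at about 1.3% or above, every replicate too, limit read from the data; inconclusive = no clear call, values can overlap the other calls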
S100A4 inh HTS = inhibitors of human S100A4 binding to myosin IIA peptide; P26447; S100A4/TAMRA-MyoIIA peptide fluorescence polarization; inhibition, % at 10.7 µM; 0.14% of 360,000 active; AID 652163;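 active = mean inhibition of at least 70% across replicates, with every replicate also reaching that level; inconclusive = mean inhibition reaches 70% but some replicates fall short; inactive = mean inhibition below 70%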
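assay system = human S100A4 monomer with TAMRA-labelled myosin IIA peptide | also added = labelled myosin peptide probe, 5 nM | incubation = 5 min between mix addition and reading | control set = DMSO and TFP controls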
PDI turbidity = blocks human protein disulfide isomerase activity; P07237; PDI insulin aggregation turbidity, A650, 90 min; inhibition, % at 10 µM; 0.052% of 350,000 active; AID 588391;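 active = mean inhibition across replicates of 30% or more, whatever share of single replicates reach that level; inconclusive = mean inhibition below 30% while every single replicate reaches 30%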
Large screens that a line does not name were inactive.

COc1ccc(-n2nnc3c(=O)n(CC(=O)N4CCCC4)cnc32)cc1	none (no result: SIRT5 block, ERp5 inh, FGF22 binding, S100A4 inh HTS)
Cc1ccnc(NC(=O)c2ccccc2[N+](=O)[O-])c1	none (no result: SIRT5 block, ERp5 inh, FGF22 binding, S100A4 inh HTS)
Cc1ccnc(NC(=O)c2cccc([N+](=O)[O-])c2C)c1	FGF22 binding 43 (no result: UUG fidelity)
O=C(Nc1ccc(Cl)cn1)c1ccccc1[N+](=O)[O-]	FGF22 binding 43
C[C@H](CO)N1C[C@H](C)[C@@H](CN(C)C(=O)Nc2cccc(F)c2)Oc2ncc(C3=CCCCC3)cc2C1=O	none (no result: PDI turbidity)
COCC(=O)Nc1ccc2c(c1)[C@H]1C[C@H](CC(=O)NCCN3CCCCC3)O[C@H](CO)[C@H]1O2	none (no result: PDI turbidity)
O=C(C[C@H]1C[C@@H]2c3cc(NC(=O)C4CCC4)ccc3O[C@@H]2[C@H](CO)O1)NCC1CC1	none (no result: PDI turbidity)
COc1ccc(/C=C(\CC(=O)O)c2nc3ccccc3s2)cc1O	none
COc1cc(/C=C(\CC(=O)O)c2nc3ccccc3s2)cc(OC)c1O	FGF22 binding 43 (no result: UUG fidelity)
COCC(=O)N(C)C[C@H]1Oc2cc(C#CCC3CCCC3)ccc2S(=O)(=O)N([C@H](C)CO)C[C@@H]1C	none (no result: PDI turbidity)
CN(C)c1ccc(C=c2c3cc(O)ccc3n3c2cc(-c2ccccc2)[n+]3C)cc1	S100A4 inh HTS 79 (no result: UUG fidelity)
c1ccc([C@H]2CN3C(=N2)Sc2ccccc23)cc1	FGF22 binding 45
CC(=O)N1SC(N)=NC1c1ccccc1 (stereo unspecified)	none (no result: SIRT5 block, ERp5 inh, FGF22 binding, S100A4 inh HTS)
CCC(=O)N1C[C@H](C)[C@@H](OC)CN(C)C(=O)c2ccc(NC(=O)C3CCOCC3)cc2OC[C@@H]1C	none (no result: UUG fidelity, PDI turbidity)
CN(C)CCCCCCNC(=O)[C@@H]1C[C@@H]2C(=O)N3CCC[C@H]3C(=O)N2[C@@H]1c1ccc(O)cc1	S100A4 inh HTS inconclusive (no result: PDI turbidity)
Cc1noc(C)c1NC(=O)N[C@@H]1CC[C@H](CCNC(=O)C2CCOCC2)O[C@@H]1CO	S100A4 inh HTS 98 (no result: PDI turbidity)
O=C(Nc1ccc2c(c1)OCO2)N[C@H]1CC[C@H](CCNC(=O)C2CC2)O[C@@H]1CO	SIRT5 block 31 (no result: PDI turbidity)
Cc1noc(C)c1NC(=O)N[C@H]1CC[C@H](CCNC(=O)C2CC2)O[C@H]1CO	SIRT5 block 18 (no result: PDI turbidity)
Cc1noc(C)c1NC(=O)N[C@H]1CC[C@@H](CCNC(=O)C2CCOCC2)O[C@H]1CO	none (no result: PDI turbidity)
COc1ccc2c3c([nH]c2c1)[C@H](CO)N(C(=O)CC1CC1)CC31CCN(Cc2cccnc2)CC1	none (no result: UUG fidelity, PDI turbidity)
CCCc1cn([C@@H]2C[C@@H]3O[C@H](CO)CC[C@@H]3O[C@@H]2CCc2ccc(-c3cccc(OC)c3)cc2)nn1	none (no result: UUG fidelity, FGF22 binding, PDI turbidity)
Cc1nn(C)cc1C(C(=O)NC1CCCCC1)N(CCc1ccccc1)C(=O)c1cnccn1 (stereo unspecified)	FGF22 binding 43 (no result: UUG fidelity)
CCCN1[C@H](CO)[C@H](c2ccc(C3=CCCC3)cc2)[C@H]1CN(C(C)=O)C1CCCC1	none (no result: UUG fidelity, FGF22 binding, PDI turbidity)
COc1ccc2c(c1OC)C(=O)N(c1ccc(O)cc1)C2=O	FGF22 binding 43 (no result: UUG fidelity)
CCOC(=O)CC1C(=O)NCCN1Cc1cccs1 (stereo unspecified)	FGF22 binding 43
CCCNC(=O)N1CC2(CN(C(=O)c3cccc(F)c3)C2)c2c([nH]c3cc(OC)ccc23)[C@@H]1CO	none (no result: UUG fidelity, PDI turbidity)
COc1ccc2c3c([nH]c2c1)[C@@H](CO)N(C(=O)Nc1ccccc1F)CC31CCN(C(=O)C2CC2)CC1	none (no result: UUG fidelity, PDI turbidity)
CC(=O)N[C@@H]1CC[C@@H](CCNC(=O)C2CCCCC2)O[C@@H]1CO	none (no result: UUG fidelity, FGF22 binding, PDI turbidity)
O=C(Cn1cc2c(n1)CCCCC2)NC1CCN(Cc2ccccc2)CC1	FGF22 binding 43 (no result: SIRT5 block, PDI turbidity)
O=C(Cn1cc2c(n1)CCCC2)NC1CCCCCC1	none (no result: SIRT5 block, PDI turbidity)
O=C(C[C@H]1CC[C@@H](NC(=O)NC2CCCC2)[C@@H](CO)O1)NCc1ccc(F)cc1	none (no result: PDI turbidity)
CCn1c(O)c(N=NC(=O)c2cccnc2)c2cc(Br)ccc21	none
CCCCn1c(O)c(N=NC(=O)c2ccncc2)c2cc(Br)ccc21	FGF22 binding 44
CN(C1=NC(=O)C(CC(=O)Nc2ccc(Br)cc2)S1)c1ccc(O)cc1 (stereo unspecified)	PDI turbidity 61 (no result: SIRT5 block, ERp5 inh, FGF22 binding, S100A4 inh HTS)
O=C(CC1SC(=O)N(c2ccccc2)C1=O)Nc1ccc(Br)cc1 (stereo unspecified)	none
COCCNC(=O)C[C@@H]1CC[C@H]2[C@H](COc3ccc(NC(=O)C4CCCC4)cc3C(=O)N2C)O1	none (no result: PDI turbidity)
COc1cc(NC(=O)c2cccc(C)c2)c(OC)cc1NC(=O)CN1CCCCC1	FGF22 binding 43 (no result: UUG fidelity)
CNC[C@@H]1Oc2ccc(NS(=O)(=O)c3c(C)noc3C)cc2C(=O)N([C@@H](C)CO)C[C@H]1C	none (no result: PDI turbidity)
COc1cc(O)c2c(c1)oc(=O)c1c3cc(O)c(O)cc3oc21	SIRT5 block 23 (no result: UUG fidelity, PDI turbidity)
COc1ccc2c(c1)oc(=O)c1cc(OC)ccc12	none (no result: PDI turbidity)
CCN(C(=O)CSc1nnc(NCc2ccccc2)s1)C1CCS(=O)(=O)C1 (stereo unspecified)	FGF22 binding 43
COCC(=O)Nc1ccc2c(c1)C(=O)N(C)[C@@H]1CC[C@@H](CC(=O)NCc3cccc(F)c3)O[C@H]1CO2	none (no result: SIRT5 block, ERp5 inh, S100A4 inh HTS, PDI turbidity)
CCCC(=O)Nc1ccc2c(c1)OC[C@@H](C)N(Cc1ccc(-c3ccccn3)cc1)C[C@H](C)[C@H](OC)CN(C)C2=O	S100A4 inh HTS 109 (no result: PDI turbidity)
CCCNC(=O)Nc1ccc2c(c1)C(=O)N(C)C[C@H](OC)[C@H](C)CN(Cc1ccc(-c3ccccn3)cc1)[C@H](C)CO2	SIRT5 block 15 (no result: UUG fidelity, PDI turbidity)
CCCNC(=O)Nc1ccc2c(c1)OC[C@@H](C)N(Cc1ccc(-c3ccccn3)cc1)C[C@H](C)[C@H](OC)CN(C)C2=O	none (no result: SIRT5 block, PDI turbidity)
COc1ccc2c3c(n(C)c2c1)[C@@H](CO)N(C)CC31CCN(S(=O)(=O)c2cccs2)CC1	none (no result: SIRT5 block, UUG fidelity, PDI turbidity)
COc1cc(CCC(=O)OCC(N)=O)cc(OC)c1OC	FGF22 binding 43 (no result: UUG fidelity)
COc1cc(CCC(=O)OCC(=O)Nc2c(F)cccc2F)cc(OC)c1OC	none
COc1ccc(C(=O)Nc2ccc3c(c2)OC[C@@H](C)NC[C@H](C)[C@H](OC)CN(C)C3=O)cc1	none (no result: PDI turbidity)
COc1cc(NC(=O)COc2ccccc2)c(OC)cc1NC(C)=O	FGF22 binding 43
O=C(NC1CC1)C1CCN(C2CCN(C(=O)CC3=CCCCC3)CC2)CC1	SIRT5 block 29
O=C(NCCc1ccccc1)C1CCN(C2CCN(C(=O)CC3=CCCCC3)CC2)CC1	none
Cc1noc(C)c1NC(=O)Nc1ccc2c(c1)C(=O)N([C@@H](C)CO)C[C@@H](C)[C@H](CN(C)CC1CC1)OCCCC[C@H](C)O2	none (no result: UUG fidelity, PDI turbidity)
O=[N+]([O-])c1cccc(COc2cccc(CN3CCCC3)c2)c1	none
O=C(c1ccco1)N1CCN(Cc2cccc([N+](=O)[O-])c2)CC1	FGF22 binding 44 (no result: UUG fidelity)
O=[N+]([O-])c1cccc(COc2cccc(CN3CCCCC3)c2)c1	FGF22 binding 43 (no result: SIRT5 block)
O=C(c1cccs1)N1CCN(Cc2cccc([N+](=O)[O-])c2)CC1	none (no result: UUG fidelity)
COc1cccc(-c2cnc3c(c2)C(=O)N([C@H](C)CO)C[C@H](C)[C@H](CN(C)Cc2ccc(C(=O)O)cc2)O3)c1	none (no result: PDI turbidity)

Screening data: PubChem, Broad Institute
